Measured values from paper PMC7359870 (Journal of the American Chemical Society, 2020).

Molecular target: γ-secretase complex (UniProt P49768)

## HPI-TSA inhibitor 16 (peptide)
  IC50 of inhibition of γ-secretase (series 10–16, Table S2): 0.5 nM
